Antibody variant affinities, Ab-14 light chain, assay B

The measurements come from Li et al. 2023 (doi:10.1038/s41467-023-39022-2) through the FLAb antibody collection.

Target peptide (SARS-CoV-2 spike, HR2 region): PDVDLGDISGINAS

The variants keep the heavy chain, the linker and the frameworks of Ab-14 (scFv order VH, the linker GGGGSGGGGSGGGGS, VL).
VH: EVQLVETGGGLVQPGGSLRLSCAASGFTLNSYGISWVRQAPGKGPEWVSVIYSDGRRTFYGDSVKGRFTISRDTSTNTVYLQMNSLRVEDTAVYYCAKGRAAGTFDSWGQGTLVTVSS
VL: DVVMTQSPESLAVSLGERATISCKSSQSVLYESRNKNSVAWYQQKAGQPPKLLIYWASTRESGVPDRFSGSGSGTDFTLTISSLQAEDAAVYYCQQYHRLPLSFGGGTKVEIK

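Phage display of a naive human antibody library on the peptide gave the parent. This is the validation round: designs drawn from the data on random variants, tested in the same kind of assay. Their group label is 14L_En_Gen (En: ensemble of fine-tuned language models; Gen: genetic algorithm). In AlphaSeq, yeast of one mating type display the scFv and yeast of the other type display the target. After mating in shaken culture at 30 °C for 16 h, diploids were selected and their barcode pairs sequenced. A regression on co-assayed BCL2-family reference pairs converts the normalised counts of each replicate to an apparent Kd. Mating was done six times.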

The parent's light chain CDRs are KSSQSVLYESRNKNSVA, WASTRES, QQYHRLPLS; each variant's own CDRs replace them letter for letter. Affinities are written as log10 Kd with Kd in nM; a lower number is a better binder. Averages over replicates are reported, and they cover detected replicates only. Where no diploid with the target was found in that replicate, the entry reads "nd": below detection, most likely a poor binder, though not proof of it. Values of this round are not directly comparable with the first-round values of the same sequences. Three control strains display no target. For all light chain designs, 4% of the pairings with them gave a signal, with a median of 2.64 and one signal in twenty below 1.59, so weak values seen in few replicates may be background. Also given: how often the same scFv was detected with the empty control strains, with their mean in brackets. Of ten entries with the parent sequence, four were seen in most replicates (averages 0.34 to 2.37), three in one and three in none, so single entries are noisy. In the paper, a design with two or fewer of six values counts as a poor binder.

CDR-L1,CDR-L2,CDR-L3,log10 Kd (nM) by replicate,mean log10 Kd (nM),empty controls
TLSQMSGVEAVKHNSVA,ENSTREN,QQYDRLPLS,2.91 / nd / 1.96 / 3.19 / 3.36 / 2.80,2.85,1 of 18 (2.50)
KLSMVTGHMSVSKNNVA,EMETREY,QQYDRLPLS,1.71 / 0.98 / 0.80 / 1.30 / 1.28 / 1.53,1.27,0 of 18
KIGHTLNTLYEKANNVA,DLVERED,QQYFRLPLS,0.83 / 0.30 / 0.25 / 0.35 / 0.77 / 0.50,0.50,1 of 18 (2.06)
KLSMITGHMQQSKNNVA,EMVTREN,QQYNRLPLS,0.45 / -0.06 / -0.06 / 0.39 / 0.22 / 0.06,0.17,0 of 18
KLSMVTGHLSMAKNNVA,EMVTREK,QQYNRLPLS,-0.05 / -0.08 / -0.44 / -0.35 / -0.23 / -0.04,-0.20,1 of 18 (2.49)
KISQMVRVGSTHNNSIA,EEATRAK,QQYHRLPLS,nd / 1.33 / 1.89 / 2.52 / 1.97 / 1.66,1.88,1 of 18 (2.00)
KLVNFMNRGTHHTSNIA,DAQQRLD,QQYARLPLA,1.11 / 1.09 / 0.92 / 0.88 / 1.34 / 1.06,1.07,1 of 18 (2.78)
HMSMLTLQGMRARNSVA,QMTTREN,QQYDHLPLA,nd / 1.82 / nd / 1.64 / nd / nd,1.73,0 of 18
KISQMVKVGATHNNSIA,EEVTRAK,QQYHRLPLA,1.68 / 2.59 / 1.34 / 2.15 / 2.12 / 2.00,1.98,0 of 18
TLYGLSNSMSKNKNSVA,EMTTREK,QQYDRLPLV,0.76 / 0.58 / 0.95 / 0.49 / 0.63 / 0.81,0.70,2 of 18 (2.57)
MISQMYNMGQFAINSVA,QASIRNS,QQYDRLPLI,1.49 / 1.80 / 1.38 / 1.21 / 2.15 / 1.35,1.56,2 of 18 (2.16)
MISQLYNMGQFAINSVA,QASLRNE,QQYDRLPLM,nd / 1.72 / 1.23 / 1.14 / 1.95 / 1.76,1.56,1 of 18 (2.14)
MISQVMNTLTRYGNNVA,DLQERED,QQYFRLPLS,1.37 / 1.09 / 1.47 / 1.16 / nd / 1.44,1.31,1 of 18 (2.12)
KLTMITGLEKVSKNNVA,EMETRER,QQYNRLPLA,0.52 / 0.51 / 0.51 / 0.82 / 0.40 / 0.84,0.60,0 of 18
KVSEFMRGLMKKQDSIA,DNETRGA,QQYDRLPLS,1.27 / 1.53 / 0.47 / 1.50 / 1.57 / 1.75,1.35,1 of 18 (1.32)
HITYGMYVSGRYKSNIA,QAETRMQ,QQYDRLPLI,2.14 / 0.94 / 1.23 / 0.82 / 0.93 / 1.12,1.20,1 of 18 (2.26)
KIYGYMGTLNRQANSIA,DNTTRGN,QQYHRLPLS,nd / 1.91 / nd / nd / nd / nd,1.91,0 of 18
MMSQVHGLGQRHRNNVA,QTSTREP,QQYDRLPLI,1.38 / 0.91 / 1.67 / 1.97 / 1.52 / 1.91,1.56,0 of 18
QIYQAMHTLMGAKNNVA,DVTNRGK,QQYNRLPLS,0.05 / -0.10 / -0.27 / -0.26 / -0.13 / -0.01,-0.12,0 of 18
TIGQTLMAGIRNRSNVA,EVSQRLN,QQYDRLPLM,1.98 / 1.23 / 1.13 / 1.74 / 1.32 / 2.05,1.58,3 of 18 (3.25)
TIGGTLMYGMRNRSNVA,EVSERLN,QQYDRLPLM,2.13 / 1.73 / 1.61 / 1.39 / 1.44 / 1.50,1.63,0 of 18
HLGLATMLEEKVRNSVA,NNSTREE,QQYDRLPLS,0.91 / 0.69 / 0.53 / 1.44 / 0.71 / 1.18,0.91,2 of 18 (2.84)
HLGLATMLEEYVRNSVA,NNSTREK,QQYDRLPLS,2.06 / 3.23 / 3.18 / 2.44 / 2.93 / 2.21,2.68,1 of 18 (2.05)
HMSMLTLMGSRQRNSVA,QMTTREN,QQYDRLPLA,1.49 / 1.78 / 2.04 / 1.46 / 1.35 / 2.14,1.71,0 of 18
KVSEFMRGLMQKTDSIA,DNVTREN,QQYDRLPLS,2.54 / 2.92 / 3.20 / 3.58 / 2.43 / 3.93,3.10,2 of 18 (2.83)
KIGMTLNQLMQKKNNVA,DLVTREQ,QQYHRLPLS,0.25 / -0.21 / -0.06 / -0.42 / -0.05 / -0.01,-0.08,0 of 18
IVSQLMLWGYHAKNSIA,EAELRLN,QQYDRLPLF,nd / nd / nd / nd / nd / 2.36,2.36,0 of 18
MISQIMNMGQFAINSVA,QASLRCN,QQYDRLPLE,2.10 / 0.76 / 1.34 / 0.87 / 1.11 / 1.23,1.24,1 of 18 (2.25)
MVYESMDQAMRTHNSIA,DNQTRED,QQYDRLPLS,2.24 / nd / 2.17 / 2.58 / 3.45 / nd,2.61,0 of 18
KLVQFMNRGTHHTSNIA,DAQTRLD,QQYARLPLA,0.91 / 0.90 / 0.65 / 0.86 / 0.65 / 0.68,0.77,2 of 18 (3.41)
SIGLATPLEEKVRNSVA,NNSTRED,QQYDRLPLS,nd / nd / 3.43 / 1.54 / 1.63 / 2.77,2.35,1 of 18 (3.23)
MIGQMMGWESNKIHSVA,QANLRVD,QQYDRLPLE,0.43 / 0.64 / 0.46 / 0.65 / 0.40 / 0.88,0.58,0 of 18
TIGQTLMQGIRNRSNVA,EVSERLN,QQYDRLPLF,0.73 / 0.77 / 0.99 / 0.83 / 1.16 / 0.76,0.87,1 of 18 (3.05)
TLSQMSGVEAVKHNNVA,ENSTREK,QQYDRLPLT,1.60 / 2.20 / 1.68 / 1.39 / 2.29 / 1.89,1.84,1 of 18 (4.79)
MIHESYGLMSVKQSSIA,DNSTRED,QQYDRLPLS,1.63 / 2.19 / nd / 2.95 / 1.99 / nd,2.19,0 of 18
TLYGLTNSMSKSKDNVA,EMSTREA,QQYDRLPLM,0.79 / 0.83 / 0.83 / 0.85 / 1.01 / 1.25,0.92,2 of 18 (2.68)
KFSQAVNTMSVSKSAVA,EMSTRPE,QQYNRLPLA,0.64 / 0.52 / 0.77 / 0.65 / 0.48 / 0.97,0.67,0 of 18
KISLLINQTFETSNNVA,EMVTREK,QQYHRLPLS,0.75 / 0.88 / 0.78 / 0.89 / 0.91 / 0.86,0.85,0 of 18
KVSEFMRGLMQKQDSIA,DNQTRNS,QQYDRLPLS,1.13 / 1.40 / 1.27 / 1.59 / 1.98 / 1.51,1.48,0 of 18
TIGQTLMSGMRNRSNVA,EVSERCN,QQYDRLPLL,nd / nd / 1.76 / 1.72 / 1.94 / nd,1.81,0 of 18
MISQLYNMGQFAINSVA,QASERNN,QQYDRLPLI,1.97 / nd / 2.85 / 1.88 / 1.99 / 2.30,2.20,0 of 18
KLSGLMASSKFQKDNVA,ENNTREY,QQYDRLPLS,nd / nd / nd / nd / nd / nd,nd,0 of 18
MISQLYNMGSFAINSVA,QATERNE,QQYDRLPLI,nd / nd / nd / nd / nd / 2.48,2.48,0 of 18

The last 2 entries again:

CDR-L1,CDR-L2,CDR-L3,log10 Kd (nM) by replicate,mean log10 Kd (nM),empty controls
KLSGLMASSKFQKDNVA,ENNTREY,QQYDRLPLS,nd / nd / nd / nd / nd / nd,nd,0 of 18
MISQLYNMGSFAINSVA,QATERNE,QQYDRLPLI,nd / nd / nd / nd / nd / 2.48,2.48,0 of 18